Amino acid sequences for entries named in this document (tags omitted). A change or cut given only in a name is not applied to a line headed by its entry.
UniProt P14416, whole entry: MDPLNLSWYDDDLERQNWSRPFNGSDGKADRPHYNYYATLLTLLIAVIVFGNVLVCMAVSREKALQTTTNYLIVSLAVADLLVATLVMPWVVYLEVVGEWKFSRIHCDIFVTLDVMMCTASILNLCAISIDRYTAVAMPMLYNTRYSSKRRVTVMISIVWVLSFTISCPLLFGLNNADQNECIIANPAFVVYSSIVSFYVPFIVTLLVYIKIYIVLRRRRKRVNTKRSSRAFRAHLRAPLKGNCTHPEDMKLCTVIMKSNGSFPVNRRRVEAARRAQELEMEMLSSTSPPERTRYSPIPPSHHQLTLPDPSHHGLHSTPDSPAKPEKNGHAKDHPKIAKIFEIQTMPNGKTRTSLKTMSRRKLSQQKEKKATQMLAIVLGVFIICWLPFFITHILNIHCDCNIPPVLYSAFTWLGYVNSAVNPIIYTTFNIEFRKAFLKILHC

According to PMC4770093, “The role of kinetic context in apparent biased agonism at GPCRs” (Nature Communications, 2016):

Legend:
[1] = target: T1, D2LR (Homo sapiens, UniProt P14416); details: 0.1 nM [3H]spiperone; 3 h at 37 °C; 100 μM GppNHp
[2] = target: T1, D2LR; experiment: xCELLigence cellular impedance (CI) assay
[3] = target: T1, D2LR; experiment: GαoB G protein activation (BRET);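 also: Flp-In-CHO cells stably expressing D2LR, transiently transfected, agonist-stimulated in HBSS at 37 °C, net BRET read after coelenterazine, vehicle control subtracted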
[4] = target: SNAP-tagged human dopamine D2L (Homo sapiens, UniProt P14416); experiment: Tag-lite PPHT-red competition kinetic binding (HTRF); details: PPHT-red tracer
[5] = target: T1, D2LR; experiment: Inhibition of forskolin-induced cAMP production (BRET CAMYEL biosensor)

SMILES: CCCN1CCC[C@@H](c2cccc(O)c2)C1 [S-3PPP, (S)-(-)-3-(3-hydroxyphenyl)-N-propylpiperidine]
- pKi (affinity from competition binding experiments using [3H]spiperone) [1]: 5.84 ± 0.06
- pEC50 CI ([2]; 2 min): 7.66
- pEC50 CI ([2]; 5 min): 7.67
- pEC50 CI ([2]; 10 min): 7.58
- pEC50 CI ([2]; 15 min): 7.58
- pEC50 CI ([2]; 30 min): 7.50
- pEC50 CI ([2]; 45 min): 7.41
- pEC50 CI ([2]; 60 min): 7.39
- pEC50 CI ([2]; 75 min): 7.40
- pEC50 CI ([2]; 90 min): 7.41
- pEC50 Gao ([3]; 2 min): 6.46
- pEC50 Gao ([3]; 5 min): 6.54
- pEC50 Gao ([3]; 10 min): 6.57
- pEC50 Gao ([3]; 15 min): 6.67
- pEC50 Gao ([3]; 30 min): 7.02
- pEC50 Gao ([3]; 45 min): 6.78
- pEC50 Gao ([3]; 60 min): 6.79
- pEC50 Gao ([3]; 75 min): 6.62
- pEC50 Gao ([3]; 90 min): 6.77
- pKd (affinity determined from kinetic parameters) [4]: 6.11
- pEC50 cAMP ([5]; 2 min): 7.10
- pEC50 cAMP ([5]; 5 min): 6.78
- pEC50 cAMP ([5]; 10 min): 6.43
- pEC50 cAMP ([5]; 15 min): 6.37
- pEC50 cAMP ([5]; 30 min): 6.47
- pEC50 cAMP ([5]; 45 min): 5.99
- pEC50 cAMP ([5]; 60 min): 5.82
- pEC50 cAMP ([5]; 75 min): 6.04
- pEC50 cAMP ([5]; 90 min): 5.82
